{"source": "patent US20220213197A1", "about": "(priority 2019, published 2022)", "tested_on": "Mycobacterium tuberculosis", "assay": "Antituberculosis activity in guinea pig model of experimental tuberculosis", "conditions": "in vivo"}
{"smiles": "NNC(=O)c1ccncc1", "note": "[placebo + isoniazid, Isoniazid]", "values": [{"measurement": "Isolation of MTB when lung tissue homogenates are inoculated on solid culture media, units.", "result": "0 ± 0", "unit": "units"}]}
